According to US7371379B2, “Dosages for treatment with anti-ErbB2 antibodies” (Genentech, Inc., priority 1999, dated 2008):

Assays:
[1] = HERCEPTIN serum concentration in patients (Example 2); assay type: in vivo, human
human breast cancer = assay: subsequent human study, 8 mg/kg load:4 mg/kg weekly; assay type: in vivo; details: 8 mg/kg load:4 mg/kg weekly maintenance, preliminary human study
Protocol: In a subsequent, similarly designed study, human breast cancer patients were treated with a loading dose of 8 mg/kg followed by maintenance doses of4 mg/kg weekly.

BT-474M1 [2] = assay: nude mouse xenograft tumor volume, i.v. bolus versus s.c. infusion (Example 3); assay type: in vivo
Protocol: A study in a nude mouse xenograft model, which incorporates a human breast cancer cell line that naturally overexpresses the HER2 gene (BT-474M1, derived from BT-474 cells, ATCC Accession number HTB-20), comparing tumor volume as a function of i.v. bolus versus s.c. infusion was performed as follows. In the first study athymic nude nu nu 7-9 week old female mice were obtained from Taconic Inc (Germantown, N.Y.). To initiate tumor development, each mouse was inoculated subcutaneously with 3×10^6 BT474M1 cells suspended in Matrigel™. When tumor nodules reached a volume of approximately 100 mm^3, animals were randomized to 4 treatment groups. The groups were treated according to Table 3.
The study groups were treated until day 35.

BT-474M1 [3] = assay: nude mouse xenograft tumor volume, i.v. bolus versus s.c. bolus (Example 4); assay type: in vivo; details: for Tumor Vol. Day 6, mm^3: initial measurement before first dose; for Day 6-Day 31 Area Under Curve Tumor Vol., mm^3: Day 17 excluded
Protocol: (§1) This study was set up as disclosed herein in Example 3 for the comparison of intravenous bolus and subcutaneous infusion delivery. A sustained release estrogen implant was inserted subcutaneously one day before tumor cell innoculation as described in Example 3. Six days after tumor cell innoculation, the initial tumor measurement was performed. […] Animals were dosed once weekly for 4 weeks.
(§2) The mice were treated according to the information in Table 4 and using the techniques disclosed in Example 3. […] The control E25 antibody serum concentration was determined according to standard immunoassay techniques.
For this study, efficacy was measured as a decrease in tumor volume. Tumor volume was measured twice weekly.

[4] = serum antibody concentration in xenograft mice (Example 4); assay type: in vivo, mouse
Protocol: as §1, §2

[5] = test system: ErbB2 over-expressing metastatic breast cancer; assay: planned study of HERCEPTIN every three weeks with paclitaxel (Example 6); assay type: in vivo, human; details: 8 mg/kg then 6 mg/kg every 3 weeks with paclitaxel 175 mg/m^2 every 3 weeks
Protocol: After the first 12 patients the PK parameters will be assessed, if exposure is felt inadequate, then the dose will be increased to 8 mg/kg every three weeks for the remaining 12 patients.
Inclusion Criteria • 1) Females24 18 years of age • 2) Histologically confirmed ErbB2 over-expressing metastatic breast cancer • 3) Patients who have been newly diagnosed with metastatic disease • 4) Have a Karnofsky performance status of 24 70% • 5) Give written informed consent prior to any study specific screening procedures with the understanding that the patient has the right to withdraw from the study at any time, without prejudice. […]

[6] = test system: BT-474 human breast adenocarcinoma cells; details: nude mice injected with BT-474 cells; cited from earlier work

HERCEPTIN: recombinant humanized anti-ErbB2 monoclonal antibody, a humanized version of the murine anti-ErbB2 antibody 4D5
trough serum concentration, mean ([1]; Week 2, patients with 2+ HER2 overexpression): 28.8 µg/mL
trough serum concentration, mean ([1]; Week 2, patients with 3+ HER2 overexpression): 24.1 µg/mL
trough serum concentration, mean ([1]; Week 2, patients with superficial disease): 34.1 µg/mL
trough serum concentration, mean ([1]; Week 2, patients with visceral disease): 24.4 µg/mL
trough serum concentration (mean±SD) ([1]; average troughs of Weeks 7 and 8, responders): 60 ± 20 µg/mL
Peak serum concentration, Maximum ([1]; dose number 1): 274.6 µg/mL
Peak serum concentration, Minimun ([1]; dose number 1): 30.7 µg/mL
Trough serum concentration, Maximum ([1]; dose number 1): 60.7 µg/mL
Trough serum concentration, Minimun ([1]; dose number 1): 0.16 µg/mL
Peak serum concentration, Maximum ([1]; dose number 2): 307.9 µg/mL
Peak serum concentration, Mean ([1]; dose number 2): 74.3 µg/mL
Peak serum concentration, Minimun ([1]; dose number 2): 20.8 µg/mL
Trough serum concentration, Maximum ([1]; dose number 2): 74.4 µg/mL
Trough serum concentration, Minimun ([1]; dose number 2): 0.2 µg/mL
Peak serum concentration, Maximum ([1]; dose number 3): 194.8 µg/mL
Peak serum concentration, Mean ([1]; dose number 3): 75.3 µg/mL
Peak serum concentration, Minimun ([1]; dose number 3): 16.1 µg/mL
Trough serum concentration, Minimun ([1]; dose number 3): 0.2 µg/mL
Peak serum concentration, Maximum ([1]; dose number 4): 167 µg/mL
Peak serum concentration, Mean ([1]; dose number 4): 80.2 µg/mL
Trough serum concentration, Maximum ([1]; dose number 4): 89.4 µg/mL
Trough serum concentration, Minimun ([1]; dose number 4): 0.2 µg/mL
trough serum concentration, mean ([1]; dose number 4): 38.6 µg/mL
Peak serum concentration, Maximum ([1]; dose number 5): 185.8 µg/mL
Peak serum concentration, Mean ([1]; dose number 5): 85.9 µg/mL
Peak serum concentration, Minimun ([1]; dose number 5): 27.8 µg/mL
Trough serum concentration, Maximum ([1]; dose number 5): 148.7 µg/mL
Trough serum concentration, Minimun ([1]; dose number 5): 0.2 µg/mL
trough serum concentration, mean ([1]; dose number 5): 42.1 µg/mL
Peak serum concentration, Maximum ([1]; dose number 6): 218.1 µg/mL
Peak serum concentration, Mean ([1]; dose number 6): 87.2 µg/mL
Trough serum concentration, Minimun ([1]; dose number 6): 0.2 µg/mL
trough serum concentration, mean ([1]; dose number 6): 43.2 µg/mL
Peak serum concentration, Maximum ([1]; dose number 7): 187.8 µg/mL
Peak serum concentration, Mean ([1]; dose number 7): 89.7 µg/mL
Peak serum concentration, Minimun ([1]; dose number 7): 16.3 µg/mL
Trough serum concentration, Minimun ([1]; dose number 7): 0.2 µg/mL
trough serum concentration, mean ([1]; dose number 7): 48.8 µg/mL
Peak serum concentration, Maximum ([1]; dose number 8): 295.6 µg/mL
Peak serum concentration, Minimun ([1]; dose number 8): 11.4 µg/mL
tumor volume in the patients (human breast cancer): efficacious in reducing tumor volume
growth of the tumors (BT-474M1 [2]; BT474M1 tumor-bearing mice, all dosage methods, relative to control group): significantly inhibited the growth of the tumors
Tumor Volume (area under curve) Day 6-Day 35 (BT-474M1 [2]; i.v. bolus, 4.0 mg/kg LD, 2.0 mg/kg/week MD): 2150 ± 1480
Tumor Volume (mm^3), Day 35 (BT-474M1 [2]; i.v. bolus, 4.0 mg/kg Loading Dose and 2.0 mg/kg/week Maintenance Dose): 49.7 ± 95.7 mm^3
efficacy of subcutaneous infusion versus intravenous bolus dosing (BT-474M1 [2]; mouse, in vivo): dosing by subcutaneous infusion was as effective as intravenous bolus dosing
Tumor Volume (area under curve) Day 6-Day 35 (BT-474M1 [2]; s.c. infusion (high dose)): 1440 ± 1140
Tumor Volume (mm^3), Day 35 (BT-474M1 [2]; s.c. infusion (high dose), IV LD 6.25 mg/kg, infusate 1.00 mg/ml): 31 ± 75.6 mm^3
Tumor Volume (area under curve) Day 6-Day 35 (BT-474M1 [2]; s.c. infusion (low dose)): 1610 ± 1250
Tumor Volume (mm^3), Day 35 (BT-474M1 [2]; s.c. infusion (low dose), IV LD 0.313 mg/kg, infusate 0.050 mg/ml): 80.6 ± 158 mm^3
Tumor Vol. Day 6, mm^3 (BT-474M1 [3]; Group 2, IV, LD 2, MD 1 mg/kg): 297 mm^3
Tumor Vol. Day 28, mm^3 (BT-474M1 [3]; Group 2, IV, MD 1 mg/kg): 175 mm^3
Tumor Vol. Day 31, mm^3 (BT-474M1 [3]; Group 2, IV, MD 1 mg/kg): 151 mm^3
Day 6-Day 31 Area Under Curve Tumor Vol., mm^3 (BT-474M1 [3]; Group 2, IV, MD 1 mg/kg): 4690 mm^3
Tumor Vol. Day 6, mm^3 (BT-474M1 [3]; Group 3, IV, LD 4, MD 2 mg/kg): 269 mm^3
Tumor Vol. Day 28, mm^3 (BT-474M1 [3]; Group 3, IV, MD 2 mg/kg): 75.7 mm^3
Tumor Vol. Day 31, mm^3 (BT-474M1 [3]; Group 3, IV, MD 2 mg/kg): 73.6 mm^3
Day 6-Day 31 Area Under Curve Tumor Vol., mm^3 (BT-474M1 [3]; Group 3, IV, MD 2 mg/kg): 3510 mm^3
Tumor Vol. Day 6, mm^3 (BT-474M1 [3]; Group 4, IV, LD 8, MD 4 mg/kg): 272 mm^3
Tumor Vol. Day 28, mm^3 (BT-474M1 [3]; Group 4, IV, MD 4 mg/kg): 25.3 mm^3
Tumor Vol. Day 31, mm^3 (BT-474M1 [3]; Group 4, IV, MD 4 mg/kg): 25.8 mm^3
Day 6-Day 31 Area Under Curve Tumor Vol., mm^3 (BT-474M1 [3]; Group 4, IV, MD 4 mg/kg): 2880 mm^3
Tumor Vol. Day 6, mm^3 (BT-474M1 [3]; Group 5, SC, LD 4, MD 2 mg/kg): 268 mm^3
Tumor Vol. Day 28, mm^3 (BT-474M1 [3]; Group 5, SC, MD 2 mg/kg): 76.2 mm^3
Day 6-Day 31 Area Under Curve Tumor Vol., mm^3 (BT-474M1 [3]; Group 5, SC, MD 2 mg/kg): 3230 mm^3
efficacy of subcutaneous bolus versus intravenous bolus dosing (BT-474M1 [3]; mouse, in vivo): dosing by subcutaneous bolus was as effective as intravenous bolus dosing
Serum Concentration, Mean ([4]; Group 2, IV, MD 1 mg/kg, Day 0): 0 µg/mL
Serum Concentration, Mean ([4]; Group 2, IV, MD 1 mg/kg, Day 7): 4.96 µg/mL
Serum Concentration, Mean ([4]; Group 2, IV, MD 1 mg/kg, Day 14): 8.55 µg/mL
Serum Concentration, Mean ([4]; Group 2, IV, MD 1 mg/kg, Day 21): 8.05 µg/mL
Serum Concentration, Mean ([4]; Group 3, IV, MD 2 mg/kg, Day 0): 0 µg/mL
Serum Concentration, Mean ([4]; Group 3, IV, MD 2 mg/kg, Day 21): 22.6 µg/mL
Serum Concentration, Mean ([4]; Group 4, IV, MD 4 mg/kg, Day 0): 0 µg/mL
Serum Concentration, Mean ([4]; Group 4, IV, MD 4 mg/kg, Day 7): 29.6 µg/mL
Serum Concentration, Mean ([4]; Group 4, IV, MD 4 mg/kg, Day 21): 46.2 µg/mL
Serum Concentration, Mean ([4]; Group 5, SC, MD 2 mg/kg, Day 0): 0 µg/mL
Serum Concentration, Mean ([4]; Group 5, SC, MD 2 mg/kg, Day 14): 16.9 µg/mL
treatment of metastatic breast cancer [5]: will be effective in treating metastatic breast cancer
activity of chemotherapy against breast cancer xenografts [6]: enhance the activity of paclitaxel (TAXOL®) and doxorubicin
